From patent US20240239801A1, “PYRIMIDO[5,4,D]PYRIMIDINE COMPOUNDS, COMPOSITIONS COMPRISING THEM AND USES THEREOF” (Université de Montréal, priority 2021, published 2024)

Protein sequences, listed by entry. Tags and fused reporters are not part of them.
UniProt P04049, whole entry: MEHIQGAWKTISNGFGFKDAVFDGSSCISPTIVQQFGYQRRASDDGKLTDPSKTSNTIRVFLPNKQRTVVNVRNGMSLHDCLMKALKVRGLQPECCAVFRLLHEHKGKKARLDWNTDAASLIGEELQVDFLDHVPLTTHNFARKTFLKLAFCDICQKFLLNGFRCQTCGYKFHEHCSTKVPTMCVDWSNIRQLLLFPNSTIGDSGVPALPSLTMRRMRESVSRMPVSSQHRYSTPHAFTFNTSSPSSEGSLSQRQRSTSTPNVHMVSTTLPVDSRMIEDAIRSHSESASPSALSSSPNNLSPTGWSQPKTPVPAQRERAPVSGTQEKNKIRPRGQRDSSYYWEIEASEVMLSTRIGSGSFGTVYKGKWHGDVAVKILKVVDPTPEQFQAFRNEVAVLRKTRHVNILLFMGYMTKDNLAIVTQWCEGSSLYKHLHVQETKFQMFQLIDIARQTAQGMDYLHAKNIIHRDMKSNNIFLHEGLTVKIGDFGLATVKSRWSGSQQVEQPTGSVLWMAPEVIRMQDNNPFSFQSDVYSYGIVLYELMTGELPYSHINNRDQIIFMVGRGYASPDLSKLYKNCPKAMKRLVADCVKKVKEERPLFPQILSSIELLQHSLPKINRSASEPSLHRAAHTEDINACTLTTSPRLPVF
UniProt P15056, whole entry: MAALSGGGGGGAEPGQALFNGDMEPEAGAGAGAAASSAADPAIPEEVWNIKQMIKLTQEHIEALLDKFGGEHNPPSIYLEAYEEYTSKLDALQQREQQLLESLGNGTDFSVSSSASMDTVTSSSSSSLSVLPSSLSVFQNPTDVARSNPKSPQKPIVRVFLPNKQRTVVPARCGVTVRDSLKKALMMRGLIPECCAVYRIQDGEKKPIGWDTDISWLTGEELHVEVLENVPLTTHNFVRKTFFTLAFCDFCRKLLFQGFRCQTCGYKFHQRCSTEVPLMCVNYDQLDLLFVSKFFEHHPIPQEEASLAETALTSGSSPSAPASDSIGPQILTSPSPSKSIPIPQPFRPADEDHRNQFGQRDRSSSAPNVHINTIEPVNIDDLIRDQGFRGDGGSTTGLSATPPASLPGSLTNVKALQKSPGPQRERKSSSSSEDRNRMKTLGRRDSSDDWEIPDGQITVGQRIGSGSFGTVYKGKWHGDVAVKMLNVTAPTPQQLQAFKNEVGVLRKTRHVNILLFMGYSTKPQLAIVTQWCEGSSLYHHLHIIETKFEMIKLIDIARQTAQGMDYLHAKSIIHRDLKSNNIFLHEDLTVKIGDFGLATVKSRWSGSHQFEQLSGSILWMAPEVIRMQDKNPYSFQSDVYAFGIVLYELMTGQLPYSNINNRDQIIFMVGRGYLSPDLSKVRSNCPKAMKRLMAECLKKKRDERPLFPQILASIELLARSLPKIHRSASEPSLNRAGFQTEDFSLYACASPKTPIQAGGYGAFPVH

How the values were obtained:
CRAF = CRAF (Homo sapiens, UniProt P04049); test: CRAF kinase activity assay (ADP-Glo); conditions: read-out: Kinase IC50 CRAF; Table 3
Protocol: (§1) Compound preparation: solid samples of each substances in 1dram vials were suspended in DMSO (Fisher Scientific) at a stock concentration of 20 mM. Stocks were kept at −20° C. and protected from light. If solubility of the compound at 20 mM appeared to be an issue, the initial concentration of the DMSO stock was changed to 10 mM or 5 mM.
(§2) In vitro enzymatic reactions were used for evaluating compounds intrinsic activity against BRAF, CRAF and ARAF. For BRAF and CRAF, 0.375 nM of purified GST-tagged kinases (cat #B4062-10UG and cat #R1656-10UG respectively from Millipore Sigma) were incubated with 75 nM of kinase-dead MEK1 substrate (cat #40075; BPS Bioscience) in the presence of 10 μM of Ultrapure ATP (cat #V9102; Promega; part V915A) with and without the test compound in a buffer containing 50 mM HEPES pH 7.5, 10 mM MgCl2, 1 mM EDTA, 0.01% Brij-35 and 2 mM DTT. Separate reactions were performed with the MEK1 substrate and ATP as a blank control. ARAF, kinase reactions were rigorously the same with the exception that kinase concentration was raised to 3.75 nM (cat #1768-0000-1; Reaction Biology).
(§3) For compound treatment, 5 μL/well of test substance solution are placed in a 384-well proxyplate (Perkin Elmer) and mixed with 2× concentrated kinase reactions. The dilution series is selected so that nine concentrations cover a range from 100 nM to 0.01 nM. […] The final concentration of DMSO in the assay is set at 0.05%.
(§4) BRAF and CRAF kinase reactions were carried out for a total of 2 hours at 30° C. and then stopped by ½ dilution in ADP-Glo Reagent (cat #V9102; Promega; part V912C). Reactions were then incubated for 1 h at room temperature before addition of one volume of Kinase Detection Reagent (cat #V9102; Promega; part V917A). Plates were then equilibrated at room temperature for 30 minutes before detection of luminescence on a Synergy Neo2 plate reader (Biotek). The effect of each compound dilution on BRAF and CRAF kinase activity was expressed as % inhibition and calculated as follows. First, the internal 100% inhibition control (average of luminescence in kinase reactions comprising kinase dead MEK1 substrate alone) was subtracted from each data point. The average of DMSO (vehicle) controls (set as 0% inhibition) was established and used to calculate % inhibition:
(§5) IC50 values were obtained by plotting the kinase inhibition values and fitting the dose-activity curves using a log(agonist) versus response−variable slope (four parameters) function using either GraphPadPrism (V7.0) or Dotmatics Screening Ultra platform. Standards included in the ARAF kinase assay were Belvarafenib (MedChem Express cat #HY-109080; CAS #1446113-23-0), LXH254 (MedChem Express cat #HY-112089; CAS #1800398-38-2) and BGB283 (cat #HY-18957; CAS #1446090-79-4).

BRAF = BRAF (Homo sapiens, UniProt P15056); test: BRAF kinase activity assay (ADP-Glo); conditions: read-out: Kinase IC50 BRAF; Table 3
Protocol: as §1, §2, §3, §4, §5

NCIH1755 pERK = test: Phospho-ERK inhibition, AlphaLISA SureFire Ultra p-ERK 1/2; conditions: Table D-2; for NCIH1755 pERK, value in parentheses, % inhibition: % Ymin of pERK IC50 curve; for pIC50: read-out: NCIH1755 pERK IC50
Protocol: (§6) All cancer cell lines (A375, A101D, A2058, RKO, HT29 SK-MEL 30, IPC298, HepG2, HCT-116, Lovo, SW620, SW480, NCI-H358, NCI-H2122, Calu-6, NCIH2087, NCIH1755, NCIH1666 and Mewo) were obtained from ATCC and cultured in RPMI-1640 medium (Gibco) supplemented with 5% heat inactivated fetal bovine serum (FBS, Wisent) at 37° C. under 5% CO2. Cells were maintained in T175 flasks (Greiner). They were passaged by removing the culture medium, washing once in 10 mL of room temperature Phosphate Buffered Saline (PBS; Wisent) and incubating at 37° C. with 2 mL of 0.05% Trypsin (Thermo-Fisher). Trypsin was then inactivated by adding complete growth medium and the cells were then replated in a T175 culture dish at the appropriate dilution. All cell lines were routinely tested for mycoplasma contamination. Tissue type and mutational status of each cell line can be found in Table B.
(§7) AlphaLISA® SureFire® Ultra™ p-ERK ½ (Thr202/Tyr204) analysis was conducted on cells plated in 100 μL of complete RPMI-1640 growth medium in 96-well flat-bottomed transparent dishes (Costar) at a density indicated in Table C. Cells were maintained overnight at 37° C. under 5% CO2 before treatment with compounds' dilution series for one hour. The cell density in cells/cm^2 corresponds to cell number divided by the area of one well of a 96-well plate ([…]).
(§8) In a dilution series 100 μL/well of test substance dilution prepared in complete RPMI-1640 growth media was added to the cells. The dilution series is selected so that ten concentrations cover a range from 30 μM or 10 μM to 0.33 nM. If necessary, the initial concentration of 10 μM is increased to 100 μM or lowered to 1 μM (as in the case of A375 and NCIH1666 cells, which are generally more sensitive to the compounds) and further dilution is carried out accordingly. The final concentration of DMSO in the assay is set at 0.5%.
(§9) After treatment, media was removed, and cells were lysed in 50 μL of 1× AlphaScreen Ultra Lysis Buffer (Perkin Elmer). The AlphaLISA® SureFire® Ultra™ p-ERK ½ (Thr202/Tyr2O4) (PerkinElmer) reactions were performed with 5 μL of cell lysate according to the manufacturer's specifications in 384-well proxyplates (Perkin Elmer) followed by overnight incubation of the reactions at room temperature in a humidified chamber. After completion of the reactions, the signals were recorded on an EnVision plate reader (Perkin Elmer) using built in AlphaLISA® settings.
(§10) The effect of each compound dilution on the pERK signal was expressed in % inhibition and calculated as follows. An internal 100% inhibition control (1 μM trametinib, cat. No. HY-10999; MedChem Express; CAS No. 871700-17-3) was included in each plate and used as a measure of pERK background. First, the value obtained for trametinib was subtracted from each data point. The average of DMSO (vehicle) controls (set as 0% inhibition) was established and used to calculate % inhibition:
(§11) The ability of each compound to inhibit pERK signal was expressed as an IC50 value obtained by plotting the inhibition values for each data point of a dilution series and fitting the obtained curves using a log(agonist) versus response−variable slope (four parameters) function using GraphPadPrism (V7.0).
(§12) When present, paradoxical pERK induction is inferred from the negative % inhibition values observed in the pERK IC50 curves of a compound.

SK-MEL30 pERK = test: as above; conditions: Table D-1; for SK-MEL30 pERK, value in parentheses, % inhibition: % Ymin of pERK IC50 curve; for pIC50: read-out: SK-MEL30 pERK IC50
Protocol: as §6, §7, §8, §9, §10, §11, §12

NCI-H358 pERK = test: as above; conditions: Table D-2; for NCI-H358 pERK, value in parentheses, % inhibition: % Ymin of pERK IC50 curve; for pIC50: read-out: NCI-H358 pERK IC50
Protocol: as §6, §7, §8, §9, §10, §11, §12

SMILES	pIC50 (CRAF)	pIC50 (BRAF)	NCIH1755 pERK, value in parentheses, % inhibition (NCIH1755 pERK)	pIC50 (NCIH1755 pERK)	SK-MEL30 pERK, value in parentheses, % inhibition (SK-MEL30 pERK)	pIC50 (SK-MEL30 pERK)	NCI-H358 pERK, value in parentheses, % inhibition (NCI-H358 pERK)	pIC50 (NCI-H358 pERK)
O=S(=O)(Nc1ccc(F)c(Nc2ncnc3cnc(-n4cnc5c(N6CCC(O)(C(F)(F)F)CC6)cccc54)nc23)c1F)c1cccc(Cl)c1Cl	7.30 to 8.00	< 8.00	(1) %	> 7.52	(13) %	> 7.52	(14) %	6.52 to 7.52
COc1ccc(S(=O)(=O)Nc2ccc(F)c(Nc3ncnc4cnc(-n5cc(S(=O)(=O)N(C)CCN(C)C)c6ccccc65)nc34)c2F)c(C)c1Cl	7.30 to 8.00	> 9.00	(0) %	6.52 to 7.52	(−12) %	6.52 to 7.52	(29) %	6.52 to 7.52

pIC50: −log10 of the molar value.
